Test results from paper doi:10.1101/2025.06.17.660082v1 (bioRxiv, 2025).

Amino acid sequences for entries named in this document (tags omitted). Residues count along the entry.
UniProt P06213, 28-1382: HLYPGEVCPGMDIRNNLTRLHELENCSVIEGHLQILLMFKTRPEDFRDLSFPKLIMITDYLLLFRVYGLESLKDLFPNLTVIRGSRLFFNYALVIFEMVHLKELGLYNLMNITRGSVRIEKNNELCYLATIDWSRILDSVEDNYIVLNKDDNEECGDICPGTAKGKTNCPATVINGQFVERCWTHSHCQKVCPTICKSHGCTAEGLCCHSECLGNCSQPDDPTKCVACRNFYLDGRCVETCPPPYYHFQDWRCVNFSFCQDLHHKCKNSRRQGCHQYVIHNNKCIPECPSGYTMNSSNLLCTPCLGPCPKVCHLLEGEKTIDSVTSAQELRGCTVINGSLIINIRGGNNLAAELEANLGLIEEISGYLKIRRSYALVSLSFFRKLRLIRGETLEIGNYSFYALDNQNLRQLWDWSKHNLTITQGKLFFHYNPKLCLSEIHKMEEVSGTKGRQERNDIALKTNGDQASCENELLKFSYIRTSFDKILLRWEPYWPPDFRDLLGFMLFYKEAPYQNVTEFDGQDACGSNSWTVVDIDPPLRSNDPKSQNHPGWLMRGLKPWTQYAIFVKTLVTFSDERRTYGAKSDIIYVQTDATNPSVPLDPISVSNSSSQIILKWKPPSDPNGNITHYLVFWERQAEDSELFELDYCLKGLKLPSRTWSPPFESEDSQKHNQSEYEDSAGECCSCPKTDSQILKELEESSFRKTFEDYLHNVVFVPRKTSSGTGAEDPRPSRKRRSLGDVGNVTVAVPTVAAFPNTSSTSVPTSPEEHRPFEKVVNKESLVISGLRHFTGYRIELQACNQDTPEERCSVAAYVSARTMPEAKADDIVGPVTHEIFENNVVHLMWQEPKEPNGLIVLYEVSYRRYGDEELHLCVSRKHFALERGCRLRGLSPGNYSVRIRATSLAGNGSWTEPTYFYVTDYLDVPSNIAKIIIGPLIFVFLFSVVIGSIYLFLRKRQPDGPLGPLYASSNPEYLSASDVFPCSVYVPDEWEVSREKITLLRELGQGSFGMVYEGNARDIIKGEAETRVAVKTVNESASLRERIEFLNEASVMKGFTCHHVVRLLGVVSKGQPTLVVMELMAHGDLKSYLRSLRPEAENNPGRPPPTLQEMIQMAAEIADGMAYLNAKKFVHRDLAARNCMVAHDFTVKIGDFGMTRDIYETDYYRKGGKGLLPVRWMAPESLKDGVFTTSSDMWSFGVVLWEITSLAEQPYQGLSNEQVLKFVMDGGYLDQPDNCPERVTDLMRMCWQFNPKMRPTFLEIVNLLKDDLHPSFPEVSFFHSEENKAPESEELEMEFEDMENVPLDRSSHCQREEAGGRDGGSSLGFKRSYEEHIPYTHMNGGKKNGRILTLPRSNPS
UniProt P22303, 32-614: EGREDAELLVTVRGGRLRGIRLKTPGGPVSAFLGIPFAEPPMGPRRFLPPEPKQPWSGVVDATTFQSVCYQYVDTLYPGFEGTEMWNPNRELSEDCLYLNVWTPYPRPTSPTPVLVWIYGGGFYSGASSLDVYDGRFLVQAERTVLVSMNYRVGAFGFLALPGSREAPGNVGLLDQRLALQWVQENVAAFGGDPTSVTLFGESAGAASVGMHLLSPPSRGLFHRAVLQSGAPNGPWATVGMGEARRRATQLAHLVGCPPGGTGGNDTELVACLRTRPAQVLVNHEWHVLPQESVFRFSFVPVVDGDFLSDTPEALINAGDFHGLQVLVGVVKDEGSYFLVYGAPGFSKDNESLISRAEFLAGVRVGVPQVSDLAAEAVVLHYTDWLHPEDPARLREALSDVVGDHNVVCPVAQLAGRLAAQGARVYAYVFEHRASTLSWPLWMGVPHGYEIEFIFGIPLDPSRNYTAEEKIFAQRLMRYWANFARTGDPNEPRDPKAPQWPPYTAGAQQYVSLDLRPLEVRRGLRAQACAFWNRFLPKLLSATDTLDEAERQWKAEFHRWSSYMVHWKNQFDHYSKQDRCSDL

Columns and labels:
[1] = test system: insulin receptor signaling pathway in hMADS; assay: Insulin signalling; format: cell-based, human
3T3-L1 cells = assay: Insulin signalling; format: cell-based, mouse; details: 10 nM insulin
DIO mice = assay: Acute treatment of DIO mice, plasma parameters and ex vivo tissue analysis; format: in vivo, mouse
[2] = molecular target: insulin receptor (INSR) kinase (Homo sapiens, UniProt P06213); assay: Functional and binding panel 87 assays: IRK; format: biochemical; details: read-out: inhibition of control specific binding
white hMADS cells = assay: Lipolysis assay; format: cell-based, human
[3] = artificial 3D BBB system and BBB in mice following intranasal delivery; cited from earlier work
[4] = test system: CRE-Luc2P empty cells (no GIPR receptor overexpression); assay: CRE-Luc2P reporter assay, empty cells without receptor overexpression; format: cell-based
[5] = molecular target: acetylcholinesterase (AChE) (Homo sapiens, UniProt P22303); assay: Functional and binding panel 87 assays: acetylcholinesterase; format: biochemical
LRP1 = assay: Surface plasmon resonance, LRP1 to SP16; format: binding; details: Supplementary Fig. 7b-7e
white hMADS = assay: Seahorse oxygen consumption; format: cell-based, human
hMADS cells = assay: mRNA expression by RT-qPCR in hMADS; format: cell-based, human
[6] = 30 µM, 10 nM insulin, 15 min + 15 min

## CCCC[C@H](NC(=O)[C@H](CC(C)C)NC(=O)[C@H](Cc1ccccc1)NC(=O)[C@@H](NC(=O)[C@H](Cc1ccccc1)NC(=O)[C@@H]1CCCN1C(=O)[C@H](CCCCN)NC(=O)[C@H](CC(N)=O)NC(=O)[C@H](Cc1ccccc1)NC(=O)[C@H](CCCCN)NC(=O)[C@@H](NC(C)=O)C(C)C)C(C)C)C(=O)N[C@H](C(=O)N[C@@H](CCC(=O)O)C(=O)N[C@@H](CCC(N)=O)C(=O)N[C@@H](CC(N)=O)C(=O)N[C@H](C(=O)N[C@@H](CCCCN)C(N)=O)[C@@H](C)O)[C@@H](C)CC [SP16]
[1]
  inhibitory effect on pINSR/pAKT at 100 nM insulin: diminished
[1]; 10 µM, 10 nM insulin
  inhibition of pINSR and pAKT: does not exhibit any inhibition
[1]; [6]
  inhibition of pAKT compared to SP16 NC: approximately 70%
  inhibition of pINSR compared to SP16 NC: approximately 70%
[1]; absence of insulin
  phosphorylation of AKT under basal conditions: does not modulate
3T3-L1 cells
  inhibition of pINSR and pAKT in mouse adipocytes: less pronounced inhibition
DIO mice; 15-min treatment, i.p.
  plasma FFA compared to vehicle: higher level of plasma FFA
  plasma leptin compared to vehicle: lower leptin level
DIO mice; 15 min after i.p.
  FFA, glycerol and cAMP in eWAT ex vivo: trend for elevated levels
  pAKT in eWAT: significant increase
DIO mice; at the tested dose
  FFA, glycerol, cAMP and pAKT in iWAT, iBAT and the liver: failed to significantly affect
[2]
  inhibition at 10 µM: 69.3%
White hMADS cells; GIPR knockdown approximately 40%
  FFA release in hMADS treated with GIPR siRNA vs siNC: significantly reduced
White hMADS cells; hMADS pretreated with propranolol
  lipolytic phenotype after β-adrenergic receptor antagonism with propranolol: not blocked by propranolol
White hMADS cells; hMADS, LRP antagonist (RAP) and LRP1 siRNA knockdown
  involvement of LRP1 in lipolysis: does not induce lipolysis through LRP1
White hMADS cells; white hMADS
  FFA release after pretreatment with adenylyl cyclase inhibitor SQ22536: inhibited
[3]
  passage of blood-brain barrier: demonstrated to traverse
[4]
  cAMP induction on empty cells: no cAMP induction
[5]
  inhibition at 10 µM: 79.9%
LRP1
  binding to LRP1 by SPR: could confirm
White hMADS; acute treatment, 10 µM, white hMADS
  proton leak, SP16 vs SP16 NC: does not significantly differ
White hMADS; hMADS
  OCR after 24-h and 3 x 24-h treatment: does not result in an increase in OCR
White hMADS; with palmitate-BSA
  fatty acid oxidation test, OCR vs SP16 NC: no significant difference
hMADS cells; 4 h, 10 µM
  PPARG1A expression: significant upregulation
hMADS cells; 4 h treatment
  UCP1 mRNA levels: unchanged expression
hMADS cells; in the presence of 10 nM insulin, 24 h
  expression of FASN: significantly lower
